{"source": "paper PMC8333062", "about": "“Chemical tools for epichaperome-mediated interactome dysfunctions of the central nervous system” (Nature Communications, 2021)", "tested_on": "tumor endothelial cells in GBM explants", "experiment": "Active caspase-3 in CD105+ve cells of explants", "conditions": "1 µM, explants #30; listed as PU-H71", "note": "“And” between values parts separate entries of the source, which are not always exact repeats. Equal values may be shown once.", "data": [{"smiles": "CC(C)NCCCn1c(Sc2cc3c(cc2I)OCO3)nc2c(N)ncnc21", "note": "[Compound 1, reference compound]", "values": [{"measurement": "%Increase Active Caspase-3 (CD105+ve cells)", "result": "143% and 152% and 196%"}]}]}
